The values below are quoted from earlier work in publication PMC9229563, “Pharmacokinetics and the Dermal Absorption of Bromochlorophene, a Cosmetic Preservative Ingredient, in Rats” (Toxics, 2022).

As usually defined, the LD50 is the dose at which mortality reaches 50%.

For this data set the following is noted: rat, in vivo, po; cited from earlier work.

Structures are written as SMILES.

Turning to `Oc1c(Br)cc(Cl)cc1Cc1cc(Cl)cc(Br)c1O` [BCP, 2,2'-Methylenbis (6-bromo-4-chlorophenol)], the LD50 is listed as 3700 mg/kg.
